The entries are a selection whose mix differs from that of the whole data set. Calls of active or inactive are those of the source.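 Rule for the calls: active = inhibition of the luminescence signal of 40% or more relative to plate controls, in a single-dose primary screen at 18.75 µM; inactive = the rest.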

This assay is described as follows: HIF-2a reporter inhibitors, primary screen, luminescence, 786-0 RCC cells (AID 624352). As to conditions: 786-0 RCC cells HIF-2a reporter, luciferase luminescence, overnight; at 18.8 µM; active compounds read high.
Turning to `CP(=O)(Nc1cccc(Br)c1)Oc1ccccc1` (stereo unspecified), the inhibition (usually how much of the control response was suppressed) is inactive: 13.2%.

For the origin of these results see PubChem BioAssay AID624352 (Sanford-Burnham Center for Chemical Genomics, 2012).
